According to the supplement of paper PMC11316812:
± gives the standard deviation of the averaged measurements.

Assays:
MCF7 = assay: percentage of EdU-negative (G0-arrested) nuclei per well, 72 h; higher = more G0 arrest; settings: reference: sequence is the full UniProt precursor, the tested protein was the secreted form or ectodomain
hTERT-HMEC = assay: as above; settings: reference: sequence is the full UniProt precursor, the tested protein was the secreted form or ectodomain
[1] = protein concentration 0.03125 µM
[2] = protein concentration 0.3125 µM
[3] = protein concentration 0.00864 µM
[4] = protein concentration 0.0864 µM
[5] = protein concentration 0.0225 µM
[6] = protein concentration 0.0357143 µM
[7] = protein concentration 0.357143 µM
[8] = protein concentration 0.027535 µM
[9] = protein concentration 0.27535 µM
[10] = protein concentration 0.0127775 µM
[11] = protein concentration 0.127775 µM
[12] = protein concentration 0.0354286 µM
[13] = protein concentration 0.354286 µM
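Further: secreted proteins added to cultured cells, EdU pulse at the end, nuclei found by Hoechst imaging, EdU status from nuclear versus surrounding ring intensity ratio, PBS as neutral control.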

Sequence: MEICRGLRSHLITLLLFLFHSETICRPSGRKSSKMQAFRIWDVNQKTFYLRNNQLVAGYLQGPNVNLEEKIDVVPIEPHALFLGIHGGKMCLSCVKSGDETRLQLEAVNITDLSENRKQDKRFAFIRSDSGPTTSFESAACPGWFLCTAMEADQPVSLTNMPDEGVMVTKFYFQEDE
- percentage of EdU-negative (MCF7; [1]): 24.1 ± 2.4%
- percentage of EdU-negative (MCF7; [2]): 26.9 ± 1%
- percentage of EdU-negative (hTERT-HMEC; [1]): 4.62 ± 0.45%
- percentage of EdU-negative (hTERT-HMEC; [2]): 5.82 ± 0.83%

Sequence: MELSGATMARGLAVLLVLFLHIKNLPAQAADTCPEVKVVGLEGSDKLTILRGCPGLPGAPGPKGEAGVIGERGERGLPGAPGKAGPVGPKGDRGEKGMRGEKGDAGQSQSCATGPRNCKDLLDRGYFLSGWHTIYLPDCRPLTVLCDMDTDGGGWTVFQRRMDGSVDFYRDWAAYKQGFGSQLGEFWLGNDNIHALTAQGSSELRVDLVDFEGNHQFAKYKSFKVADEAEKYKLVLGAFVGGSAGNSLTGHNNNFFSTKDQDNDVSSSNCAEKFQGAWWYADCHASNLNGLYLMGPHESYANGINWSAAKGYKYSYKVSEMKVRPA
- percentage of EdU-negative (MCF7; [3]): 24.4 ± 3.5%
- percentage of EdU-negative (MCF7; [4]): 26.02 ± 0.077%
- percentage of EdU-negative (hTERT-HMEC; [3]): 4.68 ± 0.66%
- percentage of EdU-negative (hTERT-HMEC; [4]): 6.17 ± 0.52%

Sequence: MLFLLLPLLAVLPGDGNADGLKEPLSFHVTWIASFYNHSWKQNLVSGWLSDLQTHTWDSNSSTIVFLCPWSRGNFSNEEWKELETLFRIRTIRSFEGIRRYAHELQFEYPFEIQVTGGCELHSGKVSGSFLQLAYQGSDFVSFQNNSWLPYPVAGNMAKHFCKVLNQNQHENDITHNLLSDTCPRFILGLLDAGKAHLQRQVKPEAWLSHGPSPGPGHLQLVCHVSGFYPKPVWVMWMRGEQEQQGTQRGDILPSADGTWYLRATLEVAAGEAADLSCRVKHSSLEGQDIVLYWEHHSSVGFIILAVIVPLLLLIGLALWFRKRCFC
- percentage of EdU-negative (MCF7; [5]): 26.7 ± 0.86%
- percentage of EdU-negative (MCF7; protein concentration 0.225 µM): 28.1 ± 2.5%
- percentage of EdU-negative (hTERT-HMEC; [5]): 4.5 ± 0.6%
- percentage of EdU-negative (hTERT-HMEC; protein concentration 0.225 µM): 7.24 ± 0.28%

Sequence: MRASSFLIVVVFLIAGTLVLEAAVTGVPVKGQDTVKGRVPFNGQDPVKGQVSVKGQDKVKAQEPVKGPVSTKPGSCPIILIRCAMLNPPNRCLKDTDCPGIKKCCEGSCGMACFVPQ
- percentage of EdU-negative (MCF7; [5]): 29 ± 1.3%
- percentage of EdU-negative (MCF7; protein concentration 0.225 µM): 26.3 ± 1.7%
- percentage of EdU-negative (hTERT-HMEC; [5]): 5.968 ± 0.017%
- percentage of EdU-negative (hTERT-HMEC; protein concentration 0.225 µM): 6.79 ± 1.1%

Sequence: MHLLAILFCALWSAVLAENSDDYDLMYVNLDNEIDNGLHPTEDPTPCACGQEHSEWDKLFIMLENSQMRERMLLQATDDVLRGELQRLREELGRLAESLARPCAPGAPAEARLTSALDELLQATRDAGRRLARMEGAEAQRPEEAGRALAAVLEELRQTRADLHAVQGWAARSWLPAGCETAILFPMRSKKIFGSVHPVRPMRLESFSACIWVKATDVLNKTILFSYGTKRNPYEIQLYLSYQSIVFVVGGEENKLVAEAMVSLGRWTHLCGTWNSEEGLTSLWVNGELAATTVEMATGHIVPEGGILQIGQEKNGCCVGGGFDETLAFSGRLTGFNIWDSVLSNEEIRETGGAESCHIRGNIVGWGVTEIQPHGGAQYVS
- percentage of EdU-negative (MCF7; [6]): 25.5 ± 0.38%
- percentage of EdU-negative (MCF7; [7]): 23.7 ± 1.3%
- percentage of EdU-negative (hTERT-HMEC; [6]): 4.76 ± 0.38%
- percentage of EdU-negative (hTERT-HMEC; [7]): 6.46 ± 0.83%

Sequence: MEQGKGLAVLILAIILLQGTLAQSIKGNHLVKVYDYQEDGSVLLTCDAEAKNITWFKDGKMIGFLTEDKKKWNLGSNAKDPRGMYQCKGSQNKSKPLQVYYRMCQNCIELNAATISGFLFAEIVSIFVLAVGVYFIAGQDGVRQSRASDKQTLLPNDQLYQPLKDREDDQYSHLQGNQLRRN
- percentage of EdU-negative (MCF7; [5]): 24.7 ± 3.7%
- percentage of EdU-negative (MCF7; protein concentration 0.225 µM): 24.7 ± 0.87%
- percentage of EdU-negative (hTERT-HMEC; [5]): 5.25 ± 0.78%
- percentage of EdU-negative (hTERT-HMEC; protein concentration 0.225 µM): 4.58 ± 0.78%

Sequence: MAAGTAVGAWVLVLSLWGAVVGAQNITARIGEPLVLKCKGAPKKPPQRLEWKLNTGRTEAWKVLSPQGGGPWDSVARVLPNGSLFLPAVGIQDEGIFRCQAMNRNGKETKSNYRVRVYQIPGKPEIVDSASELTAGVPNKVGTCVSEGSYPAGTLSWHLDGKPLVPNEKGVSVKEQTRRHPETGLFTLQSELMVTPARGGDPRPTFSCSFSPGLPRHRALRTAPIQPRVWEPVPLEEVQLVVEPEGGAVAPGGTVTLTCEVPAQPSPQIHWMKDGVPLPLPPSPVLILPEIGPQDQGTYSCVATHSSHGPQESRAVSISIIEPGEEGPTAGSVGGSGLGTLALALGILGGLGTAALLIGVILWQRRQRRGEERKAPENQEEEEERAELNQSEEPEAGESSTGGP
- percentage of EdU-negative (MCF7; [8]): 26.7 ± 0.38%
- percentage of EdU-negative (MCF7; [9]): 28.1 ± 2.4%
- percentage of EdU-negative (hTERT-HMEC; [8]): 4.83 ± 0.15%
- percentage of EdU-negative (hTERT-HMEC; [9]): 7.27 ± 1.5%

Sequence: MPSSVSWGILLLAGLCCLVPVSLAEDPQGDAAQKTDTSHHDQDHPTFNKITPNLAEFAFSLYRQLAHQSNSTNIFFSPVSIATAFAMLSLGTKADTHDEILEGLNFNLTEIPEAQIHEGFQELLRTLNQPDSQLQLTTGNGLFLSEGLKLVDKFLEDVKKLYHSEAFTVNFGDTEEAKKQINDYVEKGTQGKIVDLVKELDRDTVFALVNYIFFKGKWERPFEVKDTEEEDFHVDQVTTVKVPMMKRLGMFNIQHCKKLSSWVLLMKYLGNATAIFFLPDEGKLQHLENELTHDIITKFLENEDRRSASLHLPKLSITGTYDLKSVLGQLGITKVFSNGADLSGVTEEAPLKLSKAVHKAVLTIDEKGTEAAGAMFLEAIPMSIPPEVKFNKPFVFLMIEQNTKSPLFMGKVVNPTQK
- percentage of EdU-negative (MCF7; [1]): 25.2 ± 2.4%
- percentage of EdU-negative (MCF7; [2]): 26 ± 2.8%
- percentage of EdU-negative (hTERT-HMEC; [1]): 5.72 ± 0.47%
- percentage of EdU-negative (hTERT-HMEC; [2]): 5.777 ± 0.052%

Sequence: MQIPQAPWPVVWAVLQLGWRPGWFLDSPDRPWNPPTFSPALLVVTEGDNATFTCSFSNTSESFVLNWYRMSPSNQTDKLAAFPEDRSQPGQDCRFRVTQLPNGRDFHMSVVRARRNDSGTYLCGAISLAPKAQIKESLRAELRVTERRAEVPTAHPSPSPRPAGQFQTLVVGVVGGLLGSLVLLVWVLAVICSRAARGTIGARRTGQPLKEDPSAVPVFSVDYGELDFQWREKTPEPPVPCVPEQTEYATIVFPSGMGTSSPARRGSADGPRSAQPLRPEDGHCSWPL
- percentage of EdU-negative (MCF7; [6]): 23.7 ± 1.5%
- percentage of EdU-negative (MCF7; [7]): 25.1 ± 1.9%
- percentage of EdU-negative (hTERT-HMEC; [6]): 5.19 ± 0.065%
- percentage of EdU-negative (hTERT-HMEC; [7]): 6.2 ± 1.8%

Sequence: MIILIYLFLLLWEDTQGWGFKDGIFHNSIWLERAAGVYHREARSGKYKLTYAEAKAVCEFEGGHLATYKQLEAARKIGFHVCAAGWMAKGRVGYPIVKPGPNCGFGKTGIIDYGIRLNRSERWDAYCYNPHAKECGGVFTDPKQIFKSPGFPNEYEDNQICYWHIRLKYGQRIHLSFLDFDLEDDPGCLADYVEIYDSYDDVHGFVGRYCGDELPDDIISTGNVMTLKFLSDASVTAGGFQIKYVAMDPVSKSSQGKNTSTTSTGNKNFLAGRFSHL
- percentage of EdU-negative (MCF7; [10]): 25.8 ± 1.6%
- percentage of EdU-negative (MCF7; [11]): 28.1 ± 2.9%
- percentage of EdU-negative (hTERT-HMEC; [10]): 4.79 ± 0.52%
- percentage of EdU-negative (hTERT-HMEC; [11]): 5.86 ± 1.9%

Sequence: MAWFALYLLSLLWATAGTSTQTQSSCSVPSAQEPLVNGIQVLMENSVTSSAYPNPSILIAMNLAGAYNLKAQKLLTYQLMSSDNNDLTIGQLGLTIMALTSSCRDPGDKVSILQRQMENWAPSSPNAEASAFYGPSLAILALCQKNSEATLPIAVRFAKTLLANSSPFNVDTGAMATLALTCMYNKIPVGSEEGYRSLFGQVLKDIVEKISMKIKDNGIIGDIYSTGLAMQALSVTPEPSKKEWNCKKTTDMILNEIKQGKFHNPMSIAQILPSLKGKTYLDVPQVTCSPDHEVQPTLPSNPGPGPTSASNITVIYTINNQLRGVELLFNETINVSVKSGSVLLVVLEEAQRKNPMFKFETTMTSWGLVVSSINNIAENVNHKTYWQFLSGVTPLNEGVADYIPFNHEHITANFTQY
- percentage of EdU-negative (MCF7; [12]): 24.3 ± 1.3%
- percentage of EdU-negative (MCF7; [13]): 25.8 ± 0.51%
- percentage of EdU-negative (hTERT-HMEC; [12]): 4.8 ± 0.28%
- percentage of EdU-negative (hTERT-HMEC; [13]): 7.15 ± 0.68%
